Data reported in PMC12214610.
Only a part is listed here, and it is no random draw.

Molecular target: Actin, alpha skeletal muscle (UniProt P68133)

Q: For Protein S100-A6, P06703, which “listed as a hit” value is on record?
A: yes
